{"source": "patent US5824692A", "about": "(priority 1995, dated 1998)", "target": "high affinity CNS nicotinic receptors", "format": "binding, rat (Sprague-Dawley)", "data": [{"compound": "NCC/C=C/c1cncnc1.O=C(O)/C=C/C(=O)O", "note": "[Sample No. 1, (E)-4-(5-pyrimidinyl)-3-butene-1-amine monofumarate]", "values": [{"measurement": "Ki", "value": 269, "unit": "nM"}]}]}
